Measured values: ChEMBL document CHEMBL4765307, “Design, synthesis and biological activity of novel 2,3,4,5-tetra-substituted thiophene derivatives as PI3Kα inhibitors with potent antitumor activity” (Eur J Med Chem, 2020)

What was measured:
[1] = organism: Homo sapiens; assay: (§1) Selectivity index, ratio of IC50 for N-terminal His6-tagged human recombinant full length PI3Kbeta co-expressed with human recombinant full length P85alpha in baculovirus infected Sf21 cells to IC50 for His-tagged human full length PI3Kalpha coexpressed with p85 alpha in baculovirus expression system
[2] = organism: Homo sapiens; assay: Selectivity index, ratio of IC50 for GST-tagged human recombinant PI3Kgamma catalytic domain (468 to 1203 residues) expressed in insect cells to IC50 for His-tagged human full length PI3Kalpha coexpressed with p85 alpha in baculovirus expression system
[3] = organism: Homo sapiens; assay: as §1, with “PI3Kdelta” for “PI3Kbeta”
[4] = organism: Homo sapiens; assay: Selectivity index, ratio of IC50 for N-terminal FLAG-tagged human recombinant mTOR (1362 to end residues) to IC50 for His-tagged human full length PI3Kalpha coexpressed with p85 alpha in baculovirus expression system

- Ratio IC50 [1]: 12
- Ratio IC50 [3]: 30
- Ratio IC50 [4]: 196
Compound: N#Cc1c(N2CCOCC2)sc(-c2nc[nH]n2)c1-c1ccc(NC(=O)Nc2ccccc2Cl)cc1
- Ratio IC50 [2]: 28
